settings: deionized water, approximately 22° C., room temperature

Compound	Solubility [µg/mL]
CC(C)OC(=O)[C@H](C)N[P@](=O)(CO[C@H](C)Cn1cnc2c(N)ncnc21)Oc1ccccc1.CC(C)OC(=O)[C@H](C)N[P@](=O)(CO[C@H](C)Cn1cnc2c(N)ncnc21)Oc1ccccc1.O=C(O)c1cc2ccccc2c(Cc2c(O)c(C(=O)O)cc3ccccc23)c1O [TAF Hemipamoate, Tenofovir Alafenamide Hemipamoate]	150
CC(C)OC(=O)C(C)NP(=O)(COC(C)Cn1cnc2c(N)ncnc21)Oc1ccccc1.O=C(O)c1ccc2ccccc2c1O.O=C(O)c1ccc2ccccc2c1O (stereo not drawn) [TAF Bis-xinafoate, Tenofovir Alafenamide Bis-Xinafoate]	200
CC(C)OC(=O)C(C)NP(=O)(COC(C)Cn1cnc2c(N)ncnc21)Oc1ccccc1.O=C(O)c1cc(=O)[nH]c(=O)[nH]1 (stereo not drawn) [TAF Orotate, Tenofovir Alafenamide Orotate]	1700
